Source: patent publication US20220024983A1, “BICYCLIC PEPTIDE LIGANDS SPECIFIC FOR IL-17” (BicycleRD Limited, priority 2018, published 2022)

Experiments:
IL17A dimer = biological target: T1, IL17A dimer (Homo sapiens, UniProt Q16552); assay: Human fluorescence polarisation (FP) competition assay; format: binding
T1 sequence (Q16552 24-155): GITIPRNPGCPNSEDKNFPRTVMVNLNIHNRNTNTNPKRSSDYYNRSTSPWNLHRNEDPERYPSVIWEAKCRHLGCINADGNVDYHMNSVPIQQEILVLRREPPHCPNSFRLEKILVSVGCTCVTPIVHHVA
Procedure: (§1) Affinity determination by fluorescence polarization (FP) competition. Bicycles were screened to determine affinity (Ki) in a fluorescence polarisation assay where in competition with a bicycle labelled with fluorescein (referred to as tracer) with a known affinity for IL-17A. Peptides were diluted to an appropriate concentration in assay buffer (PBS+0.01% Tween20, adjusted to pH7.4 using NaOH (1M)) with a maximum of 1% DMSO, then serially diluted 1 in 2 into assay buffer. Into black 384-well low volume plates, 5 µL of diluted peptide was added to the plate followed by 10 μL of IL-17A (75 nM) then 10 μL tracer added to a final concentration of 1 nM. Measurements were conducted on a BMG PHERAstar FS equipped with an “FP 485 520 520” optic module which excites at 485 nm and detects parallel and perpendicular emission at 520 nm. The PHERAstar FS was set at 25° C. with 200 flashes per well and a positioning delay of 0.1 second, with each well measured at 5 to 10 minute intervals for 60 minutes. The gain used for measurements was determined at the point of experiment on a tracer alone well. Data analysis was performed in Dotmatics where mP values were fit to the Cheng Prusoff equation in order to generate a Ki value.
(§2) Selected peptide ligands of the invention were tested in the above mentioned human FP competition assay and the results are shown in Table 3: […]

hIL17-A / IL17A dimer = biological target: T2, hIL17-A / IL17A dimer (Homo sapiens, UniProt Q16552); assay: IL-17A human binding assay; settings: Table 1, human; read-out: hIL17-A Binding Kd
T2 sequence (Q16552 24-155): T1 sequence (Q16552 24-155)
Procedure: IL-17A, IL-17E and IL-17F binding was determined using an analogous method to that described in WO 2011/141823.
Selected peptide ligands of the invention were tested in the above mentioned IL-17A, IL-17E and IL-17F human and mouse binding assays and the results are shown in Tables 1 and 2: […]

human IL-17A dimer [1] = biological target: T3, human IL-17A dimer (human, UniProt Q16552 24-155); assay: FP competition, competitor: tracer BCY2315
T3 construct: also called hIL17-A
T3 sequence (looked up): T1 sequence (Q16552 24-155)
Procedure: as §1, §2

human IL-17A dimer [2] = biological target: T3, human IL-17A dimer; assay: FP competition, competitor: tracer BCY2311
Procedure: as §1, §2

human IL-17A dimer [3] = biological target: T3, human IL-17A dimer; assay: FP competition, competitor: tracer BCY2311; Ki Mean column, n=2
Procedure: as §1, §2

[4] = tracer BCY2311, column Ki Mean, read-out: Ki Mean
[5] = tracer BCY2311, read-out: Ki Result
[6] = tracer BCY2315, column Ki Mean, read-out: Ki Mean
[7] = tracer BCY2315, read-out: Ki Result

Molecule	Ki (IL17A dimer; [4])	Ki (IL17A dimer; [5])	also measured
Ac-(SEQ ID NO: 50) [BCY2295]	694 nM	694 ± 24.5 nM	–
Ac-(SEQ ID NO: 38) [BCY2243]	–	30.4 nM	Ki (IL17A dimer; [6]): 39.8 nM; Ki (IL17A dimer; [7]): 40.5 ± 10.6 nM
Ac-(SEQ ID NO: 52) [BCY2302]	1880 nM	1920 ± 755 nM	–
Ac-(SEQ ID NO: 35) [BCY2239]	32.3 nM	33.2 ± 7.45 nM	–
Ac-(SEQ ID NO: 49) [BCY2294]	1020 nM	1030 ± 221 nM	–
Ac-(SEQ ID NO: 39) [BCY2244]	–	–	Ki (IL17A dimer; [7]): 1800 nM
A-(SEQ ID NO: 32)-A [BCY2235]	130 nM	134 ± 38.3 nM	–
A-(SEQ ID NO: 8)-A [BCY2269]	78.4 nM	78.7 ± 13.2 nM	–
Ac-(SEQ ID NO: 40) [BCY2246]	–	–	Ki (IL17A dimer; [6]): 546 nM; Ki (IL17A dimer; [7]): 550 ± 130 nM
Ac-(SEQ ID NO: 42) [BCY2250]	–	–	Ki (IL17A dimer; [7]): 113 nM
Ac-(SEQ ID NO: 51) [BCY2299]	3350 nM	3350 ± 98 nM	–
Ac-(SEQ ID NO: 53) [BCY2304]	365 nM	366 ± 63.7 nM	–
Ac-(SEQ ID NO: 34) [BCY2238]	–	62.9 nM	–
Ac-(SEQ ID NO: 43) [BCY2252]	–	–	Ki (IL17A dimer; [6]): 1690 nM; Ki (IL17A dimer; [7]): 1750 ± 882 nM
Ac-(SEQ ID NO: 37) [BCY2241]	–	278 nM	–
Ac-(SEQ ID NO: 41) [BCY2248]	–	241 nM	Ki (IL17A dimer; [7]): 60.6 nM
Ac-(SEQ ID NO: 33) [BCY2237]	–	110 nM	–
A-(SEQ ID NO: 4)-A [BCY2230]	–	633 nM	–
A-(SEQ ID NO: 12)-A [BCY2274]	50.8 nM	51.5 ± 15.4 nM	Ki (IL17A dimer; [7]): 35.8 nM
A-(SEQ ID NO: 3)-A [BCY2231]	–	1500 nM	–
A-(SEQ ID NO: 2)-A [BCY2265]	741 nM	822 ± 701 nM	Kd (hIL17-A / IL17A dimer): 336 nM
ACDTDPELCSFLGIACA (Ci, Cii and Ciii cyclised with TBMB, Bicyclic peptide) [BCY2275]	–	–	Ki (human IL-17A dimer [1]): 29.1 nM; Ki (human IL-17A dimer [2]): 38.4 nM; Ki (human IL-17A dimer [3]): 38.3 nM
ACEGDPELCRFLGLECA (Ci, Cii and Ciii cyclised with TBMB, Bicyclic peptide) [BCY2276]	–	–	Ki (human IL-17A dimer [1]): 24.4 nM; Ki (human IL-17A dimer [2]): 46.1 nM; Ki (human IL-17A dimer [3]): 45.4 nM
ACGTDPELCAFLGVDCA (Ci, Cii and Ciii cyclised with TBMB, Bicyclic peptide) [BCY2277]	–	–	Ki (human IL-17A dimer [2]): 84.6 nM; Ki (human IL-17A dimer [3]): 84.4 nM
ACETDLDLCAFLNIPCA (Ci, Cii and Ciii cyclised with TBMB, Bicyclic peptide) [BCY2278]	–	–	Ki (human IL-17A dimer [2]): 547 nM
ACATDPELCRFLNLDCA (Ci, Cii and Ciii cyclised with TBMB, Bicyclic peptide) [BCY2279]	–	–	Ki (human IL-17A dimer [2]): 244 nM
ACQTDPELCRFLNLDCA (Ci, Cii and Ciii cyclised with TBMB, Bicyclic peptide) [BCY2280]	–	–	Ki (human IL-17A dimer [2]): 112 nM
ACDHDPELCRFLNLDCA (Ci, Cii and Ciii cyclised with TBMB, Bicyclic peptide) [BCY2282]	–	–	Ki (human IL-17A dimer [2]): 43.5 nM

Where two headings read alike, the source gives them in different places.
